Results from PubChem BioAssay AID1046 (PCMD, 2008).
This is a selection; strong and weak results do not stand in their true shares. Some of these compounds have results that are not shown, active ones among them. Activity calls are given as the source filed them.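 How the source made its calls: active means inhibition at or above 40%; inactive means inhibition below 40%.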

Each compound was assayed against Prothrombin (Homo sapiens) (UniProt P00734) (assay: human alpha-thrombin inhibitors, primary screen, counter-screen for coagulation protease inhibitor project, biochemical, 1536-well, fluorogenic AMC substrate (AID 1046;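 further: 0% = enzyme with no compound and 100% = wells without enzyme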)). Details: Boc-VPR-AMC fluorogenic substrate cleavage, at 5 µM, hits give high values.
In the case of `O=C(NCC1(N2CCCCC2)CCCCC1)c1cc([N+](=O)[O-])ccc1Cl`, the inhibition is reported as inactive: -0.86%.
In the case of `CC(C)N1C(=O)CC2(CCN(CCOC(=O)C(O)(c3ccccc3)c3ccccc3)CC2)C1=O`, the inhibition is reported as inactive: -3.61%.
With `CCN(CC)CC(C)C(C)OC(=O)C(O)(c1ccccc1)c1ccccc1` (stereo unspecified) the inhibition was inactive: -2.85%.
With `Cc1ccccc1C(=O)NCC1(N2CCCCC2)CCCCC1` the inhibition was inactive: -2.41%.
`CN(C)C1CCCC1OC(=O)C(O)(c1ccccc1)c1ccccc1` (stereo unspecified) was tested, and the inhibition was inactive: -3.95%.
With `CCN1CCCC(OC(=O)C2(O)c3ccccc3C=Cc3ccccc32)C1` (stereo unspecified) the inhibition was inactive: 0.34%.
With `C=CCN1CCN(CCOC(=O)C(O)(c2ccccc2)c2ccccc2)CC1` the inhibition was inactive: -9.82%.
`COc1cccc(C(=O)NCC2(N3CCCCC3)CCCCC2)c1` was tested, and the inhibition was inactive: -3.34%.
In the case of `O=C(OC1CN2CCC1CC2)C(CO)(c1ccccc1)c1ccccc1` (stereo unspecified), the inhibition is reported as inactive: -3.02%.
In the case of `CN(C)c1cccc(C(=O)NCC2(N(C)C)CCCCC2)c1`, the inhibition is reported as inactive: 2.94%.
For `COc1ccc(Br)c(C(=O)NCC2(N3CCCCC3)CCCCC2)c1`, the inhibition was inactive: 0.45%.
